Assay results reported in paper PMC5119973 (Cancer Medicine, 2016).

Protein sequences, listed by entry. Tags and fused reporters are not part of them. Residues count along the entry.
UniProt P07949, 29-1114 V804M: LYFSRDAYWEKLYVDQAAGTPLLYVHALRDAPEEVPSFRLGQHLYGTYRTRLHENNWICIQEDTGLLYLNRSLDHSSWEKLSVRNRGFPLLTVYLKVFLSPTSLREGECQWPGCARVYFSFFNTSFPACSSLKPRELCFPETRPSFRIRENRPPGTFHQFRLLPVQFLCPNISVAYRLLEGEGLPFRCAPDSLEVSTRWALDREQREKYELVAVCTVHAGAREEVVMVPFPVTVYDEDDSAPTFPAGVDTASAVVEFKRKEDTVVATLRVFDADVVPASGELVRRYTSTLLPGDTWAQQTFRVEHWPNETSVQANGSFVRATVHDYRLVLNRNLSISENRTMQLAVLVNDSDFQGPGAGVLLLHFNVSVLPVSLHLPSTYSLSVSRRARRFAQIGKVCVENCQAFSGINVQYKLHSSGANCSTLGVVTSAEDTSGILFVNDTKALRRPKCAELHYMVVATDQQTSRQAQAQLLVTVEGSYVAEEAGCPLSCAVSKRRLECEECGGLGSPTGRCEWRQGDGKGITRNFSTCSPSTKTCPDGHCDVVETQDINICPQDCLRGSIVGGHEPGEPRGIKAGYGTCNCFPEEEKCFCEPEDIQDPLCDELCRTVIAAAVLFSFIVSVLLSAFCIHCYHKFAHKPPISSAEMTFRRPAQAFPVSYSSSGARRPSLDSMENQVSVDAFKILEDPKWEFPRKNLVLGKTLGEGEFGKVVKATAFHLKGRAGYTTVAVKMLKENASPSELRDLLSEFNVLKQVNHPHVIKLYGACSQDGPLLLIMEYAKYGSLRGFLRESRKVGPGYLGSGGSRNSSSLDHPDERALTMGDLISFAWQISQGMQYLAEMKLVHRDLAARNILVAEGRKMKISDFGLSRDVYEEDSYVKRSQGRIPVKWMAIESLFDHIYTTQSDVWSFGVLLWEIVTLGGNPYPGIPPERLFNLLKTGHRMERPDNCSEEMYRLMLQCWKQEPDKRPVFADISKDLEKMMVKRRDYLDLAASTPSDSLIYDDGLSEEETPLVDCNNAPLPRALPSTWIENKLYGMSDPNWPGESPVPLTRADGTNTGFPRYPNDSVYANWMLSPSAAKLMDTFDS
UniProt P07949, 29-1114 V804L: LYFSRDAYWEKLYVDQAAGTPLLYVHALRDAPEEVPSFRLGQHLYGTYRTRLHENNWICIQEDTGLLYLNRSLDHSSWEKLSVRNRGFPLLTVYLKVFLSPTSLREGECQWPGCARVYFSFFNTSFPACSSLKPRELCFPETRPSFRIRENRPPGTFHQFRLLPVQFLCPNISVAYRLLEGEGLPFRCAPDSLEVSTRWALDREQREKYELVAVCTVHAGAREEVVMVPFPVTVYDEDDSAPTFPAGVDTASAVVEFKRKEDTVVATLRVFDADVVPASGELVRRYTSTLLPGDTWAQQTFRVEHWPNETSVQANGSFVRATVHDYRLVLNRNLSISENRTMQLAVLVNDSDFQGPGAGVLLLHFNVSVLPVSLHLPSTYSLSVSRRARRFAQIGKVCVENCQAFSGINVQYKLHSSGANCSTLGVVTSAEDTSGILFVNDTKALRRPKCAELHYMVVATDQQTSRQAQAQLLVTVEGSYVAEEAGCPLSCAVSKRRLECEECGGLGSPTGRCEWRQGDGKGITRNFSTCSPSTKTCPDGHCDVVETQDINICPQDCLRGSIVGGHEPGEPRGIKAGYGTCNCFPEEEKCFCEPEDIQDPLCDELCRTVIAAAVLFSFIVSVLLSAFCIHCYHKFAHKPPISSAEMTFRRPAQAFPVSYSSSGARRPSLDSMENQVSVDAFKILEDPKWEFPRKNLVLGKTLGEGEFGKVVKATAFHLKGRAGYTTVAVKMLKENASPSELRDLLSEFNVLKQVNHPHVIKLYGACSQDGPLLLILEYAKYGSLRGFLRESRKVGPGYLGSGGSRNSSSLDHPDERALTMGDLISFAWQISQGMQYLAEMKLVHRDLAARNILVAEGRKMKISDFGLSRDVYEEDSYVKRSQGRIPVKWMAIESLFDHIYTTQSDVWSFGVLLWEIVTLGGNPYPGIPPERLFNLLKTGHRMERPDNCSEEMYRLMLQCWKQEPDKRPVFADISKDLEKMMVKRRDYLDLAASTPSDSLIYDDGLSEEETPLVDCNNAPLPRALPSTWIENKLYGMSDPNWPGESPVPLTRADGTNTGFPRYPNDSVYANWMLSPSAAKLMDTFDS
UniProt P07949, 29-1114 M918T: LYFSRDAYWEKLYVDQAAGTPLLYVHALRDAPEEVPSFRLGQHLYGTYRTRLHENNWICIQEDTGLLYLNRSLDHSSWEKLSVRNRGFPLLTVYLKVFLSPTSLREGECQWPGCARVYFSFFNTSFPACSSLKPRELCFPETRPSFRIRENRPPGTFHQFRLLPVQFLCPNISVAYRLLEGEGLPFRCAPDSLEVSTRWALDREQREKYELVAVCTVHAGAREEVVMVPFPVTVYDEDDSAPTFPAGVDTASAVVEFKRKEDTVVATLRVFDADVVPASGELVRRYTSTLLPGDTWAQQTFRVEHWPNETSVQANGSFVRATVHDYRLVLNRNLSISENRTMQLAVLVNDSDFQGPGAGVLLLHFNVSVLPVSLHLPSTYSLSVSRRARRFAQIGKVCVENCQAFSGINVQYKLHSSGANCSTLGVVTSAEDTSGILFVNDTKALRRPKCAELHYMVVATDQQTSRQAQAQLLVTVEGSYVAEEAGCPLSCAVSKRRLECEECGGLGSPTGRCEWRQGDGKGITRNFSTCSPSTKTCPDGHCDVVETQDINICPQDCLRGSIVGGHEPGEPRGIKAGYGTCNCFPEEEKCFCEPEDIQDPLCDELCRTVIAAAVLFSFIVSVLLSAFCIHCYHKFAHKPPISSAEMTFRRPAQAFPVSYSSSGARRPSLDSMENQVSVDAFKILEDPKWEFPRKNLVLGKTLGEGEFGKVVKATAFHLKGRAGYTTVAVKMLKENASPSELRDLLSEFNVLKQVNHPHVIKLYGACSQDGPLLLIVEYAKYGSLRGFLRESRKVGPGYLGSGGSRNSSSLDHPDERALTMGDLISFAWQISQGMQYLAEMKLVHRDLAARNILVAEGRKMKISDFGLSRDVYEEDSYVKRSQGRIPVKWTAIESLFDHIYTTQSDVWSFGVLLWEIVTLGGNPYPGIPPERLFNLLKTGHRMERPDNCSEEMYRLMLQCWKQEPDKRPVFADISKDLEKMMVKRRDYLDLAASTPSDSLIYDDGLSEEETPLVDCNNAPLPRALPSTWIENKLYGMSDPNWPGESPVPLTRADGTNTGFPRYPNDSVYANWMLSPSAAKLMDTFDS
UniProt P07949, 29-1114: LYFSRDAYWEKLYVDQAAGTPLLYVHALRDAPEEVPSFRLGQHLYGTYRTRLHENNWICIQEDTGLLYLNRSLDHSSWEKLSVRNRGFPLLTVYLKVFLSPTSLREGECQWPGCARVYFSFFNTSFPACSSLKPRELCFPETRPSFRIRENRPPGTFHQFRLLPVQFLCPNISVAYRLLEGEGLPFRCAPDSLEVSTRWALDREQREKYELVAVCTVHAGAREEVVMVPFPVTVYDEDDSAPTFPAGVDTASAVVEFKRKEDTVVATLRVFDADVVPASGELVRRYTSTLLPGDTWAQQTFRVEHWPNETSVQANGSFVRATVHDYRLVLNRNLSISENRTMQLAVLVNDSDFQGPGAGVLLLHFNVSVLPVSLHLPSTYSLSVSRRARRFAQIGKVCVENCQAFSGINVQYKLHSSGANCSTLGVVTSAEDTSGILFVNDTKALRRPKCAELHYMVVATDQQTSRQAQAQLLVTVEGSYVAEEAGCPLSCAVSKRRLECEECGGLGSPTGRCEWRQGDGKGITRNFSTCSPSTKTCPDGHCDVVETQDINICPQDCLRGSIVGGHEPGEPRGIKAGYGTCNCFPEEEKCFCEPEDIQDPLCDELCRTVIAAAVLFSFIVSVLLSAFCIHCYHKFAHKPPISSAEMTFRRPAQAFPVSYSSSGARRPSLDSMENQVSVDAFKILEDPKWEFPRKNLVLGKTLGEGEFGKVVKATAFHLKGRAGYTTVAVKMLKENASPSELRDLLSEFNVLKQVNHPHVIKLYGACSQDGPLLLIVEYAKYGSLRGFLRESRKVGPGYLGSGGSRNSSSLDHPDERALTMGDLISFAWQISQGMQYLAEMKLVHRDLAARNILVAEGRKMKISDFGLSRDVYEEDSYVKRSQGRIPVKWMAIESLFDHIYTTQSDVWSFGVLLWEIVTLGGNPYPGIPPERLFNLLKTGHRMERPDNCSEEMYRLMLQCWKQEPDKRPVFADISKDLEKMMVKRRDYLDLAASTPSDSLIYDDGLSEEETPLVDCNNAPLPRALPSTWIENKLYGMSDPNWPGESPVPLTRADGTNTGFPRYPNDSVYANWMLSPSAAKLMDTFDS

How the values were obtained:
RET^V804M = molecular target: T1, RET^V804M (Homo sapiens, UniProt P07949, V804M); experiment: KINOMEscan active-site competitive binding assay
T1 construct: purchased DiscoveRx (KINOMEscan service)

[1] = Plasma pharmacokinetics in female NMRI Foxn1 nu/nu mice; conditions: after regorafenib 10 mg/kg/day oral for 5 days; total = sum of molar concentrations of regorafenib, M‐2, M‐5
Method: Analyte concentrations were measured by high‐performance liquid chromatography using a Hewlett Packard 1100 Series system (Palo Alto, CA), with tandem mass spectrometric detection using an Applied Biosystems API 4000 (Thermo Fisher Scientific, Waltham, MA). The assay was validated according to the applicable guideline on method validation 11. The lower limit of quantitation for the assay was 2.00 μg/L, with a linear range of 2.00–20,000 μg/L using a sample volume of 100 μL.
Pharmacokinetic studies were performed in female NMRI Foxn1 nu/nu mice, supplied by Harlan‐Winkelmann GmbH (Borchen, Germany). […] Pharmacokinetic parameters, namely the AUC(0–24)ss and C max, were calculated from plasma concentrations using a noncompartmental analysis.

RET^V804L = molecular target: T2, RET^V804L (Homo sapiens, UniProt P07949, V804L); experiment: KINOMEscan active-site competitive binding assay
T2 construct: purchased DiscoveRx (KINOMEscan service)

RET^M918T = molecular target: T3, RET^M918T (Homo sapiens, UniProt P07949, M918T); experiment: KINOMEscan active-site competitive binding assay
T3 construct: purchased DiscoveRx (KINOMEscan service)

RET = molecular target: T4, RET (Homo sapiens, UniProt P07949); experiment: KINOMEscan active-site competitive binding assay; conditions: slash = two separate measurements
T4 construct: purchased DiscoveRx

Structure (SMILES): CNC(=O)c1cc(Oc2ccc(NC(=O)Nc3ccc(Cl)c(C(F)(F)F)c3)c(F)c2)ccn1 [Regorafenib, reference compound]
- Kd (RET^V804M): 23 nM
- AUC (% of total) [1]: 83%
- Kd (RET^V804L): 19 nM
- Kd (RET^M918T): 7.1 nM
- Kd (RET): 5.2 nM and 7.7 nM

Several values for one entry are separate records, joined by “and”; a condition that tells them apart may be missing. Equal entries are not always repeated.
